The results in this text go back to patent publication US20220373534A1, “HUMAN NASOPHARYNGEAL CARCINOMA CELLS DERIVED FROM PATIENT DERIVED XENOGRAFT AND USES THEREOF” (Chang Gung Memorial Hospital, Linkou, priority 2021, published 2022).

The assay has as its system NPC PDX-B13. As to the kind of experiment: In vivo study of tumor volume in the NPC PDX-B13 mouse model. Further details: species or system NOD/SCID mice. The following applies: week 6, read from FIG. 4. How it is done: NPC cell lines, C666-1 (EBV positive) and HK-1 (EBV negative), were maintained in RPMI containing 10% fetal bovine serum (FBS). A cell growth assay and animal studies were conducted as described by CL Hsu et al (“Application of a Patient-Derived Xenograft Model in Cytolytic Viral Activation Therapy for Nasopharyngeal Carcinoma.” Oncotarget 6, no. 31 (2015): 31323-34). All experiments involving laboratory animals followed the guidelines for animal experiments of Chang Gung Memorial Hospital (CGMH) and were approved by the IACUC of CGMH.
PDX models were generated as follows: NPC tumor samples were obtained from patients with local recurrence or metastasis undergoing biopsy or surgical resection. Each sample was immediately cut into smaller pieces of approximately 3-5 mm in diameter and subcutaneously implanted into the flank regions of anesthetized NOD/SCID mice. The xenograft was excised and reimplanted in small pieces into the next passage after the tumor reached 1-2 cm in diameter. The nomenclature system for our NPC PDX was NPC PDX-metastasized tissue (abbreviation)-patient number. Accordingly, the NPC PDX-ST1 and PDX-B13 corresponded to NPC PDX-soft tissue and NPC PDX-bone in reference, see Table 1 below. […]

Take cetuximab [ERB]: the “inhibit PDX-B13 tumor growth (reduce tumor volume)” value is on record as “approximately 30%”.
